How the values were obtained:
[1] = target: human MOR (Homo sapiens, UniProt P35372); format: binding
[2] = target: human μ opioid receptor (Homo sapiens, UniProt P35372); assay: [35S]GTPγS binding mediated by the mu opioid receptor; format: biochemical

By UniProt entry, the sequences of proteins in these tests, tags left out.
UniProt P35372, whole entry: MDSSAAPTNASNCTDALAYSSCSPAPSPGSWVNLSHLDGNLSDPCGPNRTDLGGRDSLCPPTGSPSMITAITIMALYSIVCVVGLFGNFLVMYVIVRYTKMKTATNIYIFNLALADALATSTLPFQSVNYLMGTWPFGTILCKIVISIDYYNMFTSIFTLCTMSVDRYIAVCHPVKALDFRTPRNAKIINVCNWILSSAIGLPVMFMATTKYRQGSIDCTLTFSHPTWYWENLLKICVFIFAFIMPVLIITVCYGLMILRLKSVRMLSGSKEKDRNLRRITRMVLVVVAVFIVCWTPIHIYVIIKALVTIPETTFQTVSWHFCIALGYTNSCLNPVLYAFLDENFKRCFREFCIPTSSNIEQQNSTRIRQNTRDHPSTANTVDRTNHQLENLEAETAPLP

| Compound | Selectivity MOR/KOR/DOR [1] | Emax ([2]; read-out: Emax (% maximal stimulation over basal)) | functional activity at MOR (agonist character) ([2]; [35S]GTPγS binding assay, in words) |
| --- | --- | --- | --- |
| Oc1ccc2c(c1)[C@@]13CCCC[C@H]1[C@@H](C2)N(CC1CCC1)CC3 [Butorphan, reference compound] | 3/1/75 | 50 ± 2.5% | – |
| COc1ccccc1CNc1ccc2c3c1O[C@H]1[C@@H](O)C=C[C@H]4[C@@H](C2)N(C)CC[C@@]341 [Compound 11a, 3-(2′-methoxybenzyl)amino-7,8-didehydro-4,5-epoxy-17-methyl-(5α,6α)-morphinan-6-ol] | – | – | full agonists |
| CN1CC[C@]23CCCC[C@H]2[C@H]1Cc1ccc(O)cc13 [Levorphanol, reference compound] | 1/11/20 | – | – |
